# In published antibiotic growth screens (doi:10.1038/s41589-023-01349-8):
# Some of the results follow.
# System: A. baumannii ATCC 17978
# Assay: relative growth (fraction of control); higher = less inhibition
# Settings: 50 µM
row,Compound,relative growth
1,Cc1[nH]c(=O)[nH]c(=O)c1S(=O)(=O)N1CCC(C(=O)N[C@H](C)c2ccccc2)CC1,0.996
2,CCCc1ccc2c(c1)CNCCC2,1.05
3,O=C(C[C@@H]1CC[C@@H]2[C@H](COC[C@@H](O)CN2S(=O)(=O)c2ccc(F)cc2)O1)N[C@H]1CCN(Cc2ccccc2)C1,1.07
4,CO[C@H]1O[C@H](CO)C(=O)C(=O)[C@@H]1N,0.967
5,C[C@@H]1CN([C@H](C)CO)S(=O)(=O)c2ccc(C3=CCCCC3)cc2O[C@@H]1CN(C)S(=O)(=O)c1cn(C)cn1,0.772
6,C=c1ccc(S(=O)(=O)N2CCCC2)cc1=C1NN=C2c3ccccc3C(C)=NN21,1.01
7,COC(=O)[C@H](c1ccccc1Cl)N1CCc2sccc2C1.O=S(=O)(O)O,1.16
8,O=C(N[C@H]1CC[C@@H](CC(=O)N2CCOCC2)O[C@H]1CO)c1ccccn1,1.01
9,O=C([O-])Cc1ccccc1Nc1c(Cl)cccc1Cl.[Na+],1.03
10,COc1cc(O)cc(OC)c1OC,1.05
11,O=C(NCCO)c1cc2ccccc2oc1=O,0.909
12,O=C(NC(Cc1cc(=O)[nH]c2ccccc12)C(=O)O)c1ccc(Cl)cc1 (centres undefined),0.8
13,Cc1ncc([N+](=O)[O-])n1C[C@@H](C)O,1
14,C[N+](C)(C)CCCCNC(=O)[C@@H]1C[C@@H]2C(=O)N3CCC[C@H]3C(=O)N2[C@@H]1c1cccc(OCCO)c1,1.18
15,COc1cccc(S(=O)(=O)N(C)C[C@@H]2Oc3cc(C#CCC(C)C)ccc3S(=O)(=O)N([C@@H](C)CO)C[C@H]2C)c1,1.38
16,Cn1cnc(S(=O)(=O)N2C[C@H](O)COC[C@H]3O[C@H](CC(=O)NCc4ccc(F)cc4)CC[C@@H]32)c1,1.02
17,COc1cc2c(cc1-c1coc3c4c(c(OC)cc3c1=O)OC(C)(C)CC4)OCO2,0.866
18,COC(=O)/C=C/C(=O)OC,0.87
19,CN(C)CCCCNC(=O)[C@H]1C[C@H]2C(=O)N[C@@H](Cc3ccccc3)C(=O)N2[C@H]1c1cccc(OCCO)c1,0.924
20,Cc1noc(C)c1NC(=O)N(C)C[C@@H]1Oc2ncc(C#CCN(C)C)cc2C(=O)N([C@H](C)CO)C[C@@H]1C,1.07
21,CNC(=O)C[C@@H]1CC[C@@H]2[C@H](COC[C@@H](O)CN2C(=O)Nc2cccc(OC)c2)O1,0.899
22,Cc1oc2ccccc2c1-c1csc(-c2ccccc2)n1,1.07
23,CN1CCN(C(=O)C[C@H]2CC[C@H]3[C@@H](COC[C@H](O)CN3Cc3ccc(Oc4ccccc4)cc3)O2)CC1,1.15
24,Cn1cnc(CCNC(=O)C[C@H]2CC[C@@H]3[C@H](COC[C@H](O)CN3C(=O)C3CC3)O2)c1,1.11
25,NNC(=O)Oc1ccccc1,0.976
26,Cc1nc2sccn2c(=O)c1CCN1CCC(=C(c2ccc(F)cc2)c2ccc(F)cc2)CC1,0.982
27,O=C(C[C@H]1CC[C@H]2[C@@H](COC[C@@H](O)CN2Cc2cc(F)ccc2F)O1)N[C@H]1CCN(Cc2ccccc2)C1,0.971

row,Compound,relative growth
1,Cc1ccc(NC(=O)Cc2coc3ccc(C(C)C)cc23)cc1,0.772
2,COCCNC(=O)C[C@@H]1CC[C@H]2[C@@H](COC[C@H](O)CN2C(=O)Nc2ccc3c(c2)OCO3)O1,0.945
3,CCOC(=O)C1=C(C)NC(C)=C(C(=O)OC)C1c1cccc(Cl)c1Cl (centres undefined),0.827
4,CC(C)(C)OC(=O)CC[C@]1(C(=O)NCc2ccccc2)N=C(c2ccc(OCCCO)cc2)O[C@H]1c1ccccc1,0.896
5,CC1(C)C(=O)NCCN1C(=O)Cc1ccccc1,1
6,COC(=O)C1=CO[C@@H](O[C@@H]2O[C@H](CO)[C@@H](O)[C@H](O)[C@H]2O)/C(=C\CO)[C@@H]1CC(=O)OCCc1ccc(O)cc1,0.801
7,COc1cccc(NC(=O)N2C[C@@H](O)COC[C@H]3O[C@H](CC(=O)NC4Cc5ccccc5C4)CC[C@@H]32)c1,1.09
8,COc1cccc(NC(=O)N2C[C@@H](O)COC[C@H]3O[C@@H](CC(=O)NCc4ccccc4F)CC[C@@H]32)c1,1.01
9,O=C(C[C@H]1C=C[C@H](NC(=O)c2ccc(F)cc2)[C@@H](CO)O1)NCc1ccncn1,0.958
10,C[C@H](CO)N1C[C@H](C)[C@@H](CN(C)S(=O)(=O)c2ccc(Cl)cc2)OCc2cnnn2CCCC1=O,0.878
11,C[C@H](CO)N1C[C@H](C)[C@@H](CN(C)C(=O)c2cccnc2)Oc2cc(C#CC3(O)CCCC3)ccc2S1(=O)=O,1.09
12,CNC[C@@H](O)c1cccc(O)c1,1.04
13,CCc1nn(CCCN2CCN(c3cccc(Cl)c3)CC2)c(=O)n1CCOc1ccccc1,0.948
14,Nc1ncnc2c1ncn2CCN1CCCCC1,1.1
15,Cc1ncc([N+](=O)[O-])n1C[C@@H](O)CCl,1.06
16,O=C(C[C@H]1CC[C@@H]2[C@H](COC[C@H](O)CN2C(=O)c2ccccn2)O1)NC1CCC1,1.18
17,CC(=O)O[C@H]1C[C@@]2(C)[C@@H](C[C@@H](O)[C@@H]3[C@@]4(C)CC[C@@H](O)[C@@H](C)[C@@H]4CC[C@@]32C)/C1=C(/CCC=C(C)C)C(=O)O,0.457
18,CC(C)c1cc(=O)n2nc(N)nc2[nH]1,0.927
19,C[C@@H](O)C#Cc1ccc2c(c1)O[C@@H](CN(C)C(=O)C1CCCCC1)[C@@H](C)CN([C@@H](C)CO)S2(=O)=O,1
20,Cc1cccc(NC(=O)Nc2ccc3c(c2)C(=O)N(C)[C@H]2CC[C@H](CC(=O)NCc4ccccc4Cl)O[C@H]2CO3)c1,1.19
21,COc1ccc([Si](C)(C)[C@@H]2[C@@H](CC(=O)N3Cc4ccccc4C[C@H]3CO)O[C@]3(C(=O)N(Cc4cccc(N5CCC5=O)c4)c4ccccc43)[C@H]2C)cc1,0.933
22,C[C@H]1CN([C@@H](C)CO)C(=O)c2cc(C#CC3CCCC3)cnc2O[C@H]1CN(C)C(=O)Cc1ccccn1,1.13
23,O=S(=O)(c1cccc2cnccc12)N1CCCNCC1,1.1
24,COC(=O)c1ccc2c(c1)NC(=O)CO2,0.742
25,COC(=O)CCC(C)[C@H]1CCC2C3C(C[C@H](O)[C@@]21C)[C@@]1(C)CC[C@@H](O)C[C@H]1C[C@H]3O (some centres undefined),0.875
26,O=C(NC[C@H]1CCCO1)c1ccc(/C=N/O)nc1,1.04
27,C=C[C@@]1(C)CC(=O)[C@@]2(O)[C@](C)(O1)[C@@H](O)[C@@H](O)C1C(C)(C)CC[C@H](O)[C@@]12C (some centres undefined),1.02
